These results are taken from patent US8829203B2, “3′,6-substituted indirubins and their biological applications” (Centre National de la Recherche Scientifique (CNRS), priority 2008, dated 2014).

The assay has as its system SH-SY5Y neuroblastoma cells. Kind of assay: cells. Particulars: Homo sapiens, 48 h, read-out: SH-SY5Y cell survival IC50, 48 h incubation, MTS reduction.

In general, IC50 refers to the concentration that gives 50% inhibition. With `COCCN1CCN(CCO/N=C2/C(=C3/C(=O)Nc4cc(Br)ccc43)Nc3ccccc32)CC1` [Cpd 14], the IC50 was above 100 µM.
